Data on one substance can be found in patent publication US8546320B2, “Hsp9O-targeted anti-cancer chimeric peptide” (Kyoto University, priority 2008, dated 2013).

This test addresses T1, interaction between Hsp90 and the Hop's TPR2A domain (Homo sapiens, UniProt P07900).
T1 construct: histidine tag; made in house; host or cells: Hsp90: E. coli BL21 (pDEST17-Hsp90)
The experiment in a line: BIACORE competition: Hsp90 pre-mixed with peptide, added to immobilized TPR2A. The format is binding. An excerpt:
It was examined whether the TPR peptide designed could compete specifically with the interaction between Hsp90, which is essential for the accurate folding of some carcinogenic protein including survivin in cancer cells, and the Hop's TPR2A domain.
Background: SPR reads the build-up and loss of mass on a sensor chip optically.

In the case of “TPR mutant 1: TPR mutant 1 peptide without Antp, SEQ ID No. 70; sequence not printed in the text (KAYAAAGNSYTFK; TPR mutant 1)”, the “Binding of Hsp90 (%)” value is, setting by setting: (peptide 1.411 μM) 97.75%; (peptide 14.11 μM) 95.20%; (peptide 141.1 μM) 92.84%; (peptide 282.2 μM) 83.14%; (peptide 705.5 μM) 71.08%.
